Patent US20140363530A1, “COMPOSITION COMPRISING THE EXTRACT OF PINE TREE LEAF OR THE COMPOUNDS ISOLATED THEREFROM FOR THE PREVENTION AND TREATMENT OF CANCER DISEASE BY INHIBITING HPV VIRUS AND THE USES THEREBY” (priority 2012, published 2014)

Tests used:
[1] = system: MES-SA (human uterine carcinoma); assay: SRB cytotoxicity test, MES-SA; format: cell-based
Description: (§1) To determine the cytotoxicity against human tumor cell line of the test samples prepared in Examples, following sulforhodamin B (SRB) bioassy test was performed according to the method disclosed in the literature (Skehan, P., et al., J. Natl. Cancer Inst., 82, 1990, 1107-1112).
(§2) Various human tumor cell lines, i.e., A-549 (human adenocarcinoma of lung, NCI), SK-OV-3 (human ovarian tumor, NCI), SK-MEL-2 (human malignant melanoma, NCI), HCT15 (human colon adenocarcinoma, NCI), MES-SA (human uterine carcinoma, NCI) and MES-SA/DX5 (multidrug resistant carcinoma subline of MES-SA, NCI) were used in the test.
(§3) The subcultured cell lines were detached from the surface of wall using by trypsin-EDTA solution and adjusted to various concentration of cell lines, i.e., 5×10^3 cells/well (A-549, HCT15), 1×10^4 cells/well (SK-MEL-2), 5×10^3 cells/well (SK-OV-3) in 96-well flat bottom microplate. The inoculated cell lines were incubated in CO2 incubator (MCO-20AIC, SANYO Electric Co., LTd.) to be attached on the bottom of incubator and the culture media was removed with aspirator. […] The cell plates were shaked with titer plate shaker (KOMA Orbital Shaker KE011, KOMABIOTech) for 10 mins to exude the staining solution and to determine the absorbance at 520 nm using by microplate spectrophotometer (Sunrise, TECAN).

[2] = system: MES-SA/DX5 (multidrug resistant carcinoma subline of MES-SA); assay: SRB cytotoxicity test, MES-SA/DX5; format: cell-based, human; settings: Table 3, 48 hours
Description: as §1, §2, §3

Substance: 9,14-dihydroxytotara-7-ene-8-oic acid [compound (a)]
- Cytotoxicity IC50, MES-SA [1]: 77.22 µg/mL
- Cytotoxicity IC50, MES-SA/DX5 [2]: 80.57 µg/mL
